Bioassay records deposited in PubChem BioAssay by several laboratories.
Most compounds without a hit are left out; they make up all but 2.3% or so of the library.
MC4R antag cAMP – blocks human MC4R cAMP signaling; P32245; MC4R-expressing cells, MTII-stimulated cAMP, LANCE TR-FRET; inhibition, % at 6.5 µM; 360,000 compounds, 0.48% hits; AID 540295;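 active = inhibition above its plate's cutoff, the mean of tested wells on that plate plus 3 SD, cut at about 29% in these data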
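Assay system: human MC4R-expressing U2OS cells; reagent: Melanotan II stimulation of cells; dosing: 6.5 µM single dose; timing: compound 30 min, challenge 1 h, detection 1 h; signal: TR-FRET cAMP assay; replicates: one well per compound, no replicates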
ARFGAP1 inhibitor – inhibitors of rat ARFGAP1; Q62848; Arfgap1-stimulated ARF1 GTP hydrolysis, GDP FP detection; inhibition, % at 16.5 µM; 360,000 compounds, 0.26% hits;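 active = inhibition above a per-plate limit, mean inhibition of low control wells plus 3 SD, cut at about 25% in these data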
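Assay system: Rat Arfgap1 GAP domain (His6, aa 1-136), purified enzyme | Buffer or medium: HEPES 25 mM pH 7.5, NaCl 150 mM, MgCl2, DTT | Schedule: GTP hydrolysis reaction 2 h at 25 °C | Signal: FP of antibody-bound GDP Alexa 633 tracer, ex 620/em 688 nm | Measure: Percent inhibition of Arfgap1-stimulated GTP hydrolysis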
ASAP1 GAP inh – blocks human ASAP1-stimulated Arf1 GTP hydrolysis. Q9ULH1. GDP FP detection. inhibition, % at 16.5 µM. 360,000 compounds, 0.19% hits; in the data active = inhibition above about 25%
CendR NRP1 mod – NRP-1/CendR interaction modulation | FAM-RPARPAR peptide binding to NRP-1, fluorescence polarization | inhibition, % at 25 µM | 360,000 compounds, 0.85% hits | AID 602438;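 active = inhibition or corrected inhibition above about 18%, plus a signal ratio from 0.5 to 1.5, limit read from the data, passing the limit was not always enough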
Yeast UUG start – modulators of start codon recognition fidelity in yeast; AID 602363; activity score, % at 18.7 µM; S. cerevisiae UUG-firefly luciferase reporter, luminescence/redox ratio; 0.13% of 350,000 active;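 active = replicate mean at a twofold rise or more, about +100% in these data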;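 note: firefly luciferase made from a UUG start codon reports start codon fidelity; reporter light over untreated wells divided by growth signal over untreated wells; some hits fall short of that in this replicate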
MC4R barr agon – agonists of human melanocortin 4 receptor (MC4R) beta-arrestin. P32245. U2OS MC4R beta-arrestin complementation, luminescence; percent of melanotan II response, DMSO zero. activation, % at 8.9 µM. 360,000 compounds, 0.98% hits. AID 540308;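 active = activation above a per-plate cutoff, the mean activation of sample wells on that plate plus 3 SD, cut at about 8% in these data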
MC4R barr ag – human MC4R beta-arrestin agonism confirmation. shares compounds with MC4R barr agon. 2,400 compounds, 31% hits. AID 602192. activation, % at 8.9 µM. U2OS MC4R beta-arrestin recruitment, luminescence; scaled DMSO 0%, Melanotan II 100%;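 active = mean activation across replicates above the hit cutoff set in the earlier primary screen, cut at about 8% in these data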
MOR-DOR barr ag – OPRM1-OPRD1 heterodimer agonism counter-screen | AID 602194 | activation, % at 9.2 µM | shares compounds with MC4R barr agon | U2OS PathHunter beta-arrestin, beta-gal luminescence; percent of deltorphin B response, DMSO zero | 2,400 compounds, 5.8% hits;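 active = mean activation across replicates exceeds the hit threshold derived in the earlier primary screen, cut at about 18% in these data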
Numbers stand for hits; 0 = inactive; - = no result given.

SMILES	MC4R antag cAMP	ARFGAP1 inhibitor	ASAP1 GAP inh	CendR NRP1 mod	Yeast UUG start	MC4R barr agon	MC4R barr ag	MOR-DOR barr ag
CO[C@@H]1CN(C)C(=O)c2cc(NS(=O)(=O)c3ccc(C)cc3)ccc2OC[C@@H](C)N(Cc2nccs2)C[C@@H]1C	-	-	-	-	0	-	-	-
CCCCCCc1cc2cc(S(=O)(=O)c3ccc(C)cc3)c(=O)oc2cc1O	0	0	0	0	0	22	9.6	0
CCCc1cc(-c2[nH]ncc2-c2ccc3c(c2)OCCCO3)c(O)cc1O	0	0	0	0	0	12	11	0
CCCc1cc(-c2[nH]ncc2-c2ccc(C(=O)OCC)o2)c(O)cc1O	0	0	0	0	0	23	10	0
CCc1cc(-c2[nH]ncc2-c2nc3ccccc3n2C)c(O)cc1O	0	0	0	0	0	0	-	-
Cn1cc(CNCc2cn[nH]c2-c2ccc(F)cc2)c(-c2ccc3c(c2)OCCO3)n1	0	0	0	0	-	0	-	-
O=c1[nH]c(SCc2ccc(F)cc2Cl)nc2ccccc12	0	0	0	0	0	10	0	0
COc1ccc(CSc2nc3ccccc3c(=O)[nH]2)cc1F	0	0	0	0	-	0	-	-
COc1ccc(C#Cc2cnc3c(c2)C(=O)N([C@H](C)CO)C[C@H](C)[C@H](CN(C)C)O3)cc1	-	-	-	-	0	-	-	-
COc1ccc(C(=O)Nc2ccc(NC(=O)c3cccs3)c(OC)c2)cc1Cl	0	0	0	0	0	0	-	-
COc1cc(NC(=O)COc2ccccc2[N+](=O)[O-])ccc1NC(=O)c1cccs1	0	0	0	0	0	38	18	0
COc1cc(NC(=O)COc2ccccc2Cl)ccc1NC(=O)c1cccs1	0	0	0	0	0	0	-	-
COc1cc(NC(=O)c2ccc(Cl)cc2Cl)ccc1NC(=O)c1cccs1	0	0	0	0	0	21	0	0
C[C@H](CO)N1C[C@H](C)[C@@H](CN(C)C(=O)C2CCCCC2)OCCCC[C@H](C)Oc2ccc(NC(=O)Nc3ccc(C(F)(F)F)cc3)cc2C1=O	-	-	-	-	0	-	-	-
O=C1OC(c2ccc(O)cc2)(c2ccccc2O)c2ccccc21 (stereo unspecified)	0	0	0	0	0	0	-	-
O=C1OC(c2ccccc2)(c2cc(Br)ccc2O)c2ccccc21 (stereo unspecified)	0	0	0	0	-	21	20	0
C[C@@H]1CN([C@H](C)CO)C(=O)Cc2cc(NC(=O)C3CC3)ccc2O[C@H]1CN(C)S(C)(=O)=O	-	-	-	-	0	-	-	-
COc1ccc(N2C(=S)N=C(Nc3cccc(C)c3)C23CCCCC3)cc1	0	0	0	0	-	24	9.6	0
CCc1ccccc1NC(=O)c1cc(S(=O)(=O)N2CCc3ccccc32)cn1C	0	0	0	0	0	0	-	-
Cc1cccc(NC(=O)c2cc(S(=O)(=O)N3CCc4ccccc43)cn2C)c1C	0	0	0	0	0	11	0	0
O=C(Nc1ccccc1)Nc1nnc(CSCc2ccccc2Cl)s1	0	0	0	0	0	11	0	0
O=C(Nc1ccc(Cl)cc1)Nc1nnc(CSCc2ccccc2Cl)s1	0	0	0	0	-	0	-	-
COc1ccc(-c2nnn(CC(=O)N(Cc3ccc(F)cc3)C(C(=O)NC3CCCC3)c3ccc(F)cc3)n2)cc1 (stereo unspecified)	0	0	0	0	0	9.7	0	0
CCOC(=O)CN(C(=O)Cn1nnc(-c2ccc(OC)cc2)n1)C(C(=O)NC1CCCC1)c1ccc(F)cc1 (stereo unspecified)	0	0	0	0	0	0	-	-
C[C@@H]1CN([C@H](C)CO)C(=O)Cc2cc(NC(=O)Cc3ccccc3)ccc2O[C@@H]1CN(C)S(C)(=O)=O	-	-	-	-	0	-	-	-
O=C(COc1ccc2ccccc2c1)Nc1ccc2c3c(cccc13)CC2	0	0	0	0	-	34	0	0
